Only a part is listed here, and it is no random draw. Inconclusive results are not listed. The source made the active and inactive calls. Calls follow the shape of the dose curve; as a rule, active = well fitted inhibition curve with a large enough effect; inconclusive = small, poorly fitted or top-dose-only effect, or effect the other way; inactive = no such curve, though single readings can be large or run the other way.
Assay: qHTS Multiplex Assay to Identify Dual Action Probes in a Cell Model of Huntington: Aggregate Formation (GFP); also: nearly all actives have a fitted effect of over 60% in size
Settings: PC12 HttQ103-GFP aggregates, Acumen cytometry, 40 h; at 46.1 µM (top of the series) unless noted
With `CCOC(=O)c1ccc(NP(C)(=O)Oc2cc(C)cc(C)c2)cc1` (centres undefined) the activity change, negative = inhibition was inactive: -4.42%. With `COc1ccccc1OP(C)(=O)Nc1cccc(Br)c1` (centres undefined) the activity change, negative = inhibition was inactive: 8.65% [at 9.22 µM]. With `O=[N+]([O-])[O-].[NH4+]` the activity change, negative = inhibition was inactive: 0.268%. With `CCN(CC)CCCOC(=O)C(O)(c1ccccc1)c1ccccc1` the activity change, negative = inhibition was inactive: 1.11%. In the case of `COc1ccccc1OP(C)(=O)Nc1cc(Cl)ccc1C` (centres undefined), the activity change, negative = inhibition was inactive: 5.82% [at 9.22 µM]. In the case of `COc1ccc(OP(C)(=O)Nc2cccc(F)c2)cc1` (centres undefined), the activity change, negative = inhibition was inactive: 3.15% [at 9.22 µM]. In the case of `Cc1cc(C)cc(OP(C)(N)=O)c1` (centres undefined), the activity change, negative = inhibition was inactive: 18%. With `CCOC(=O)c1ccc(NP(C)(=O)Oc2ccccc2)cc1` (centres undefined) the activity change, negative = inhibition was inactive: 13.1%. In the case of `COc1ccccc1OP(C)(=O)Nc1ccc(C)cc1` (centres undefined), the activity change, negative = inhibition was inactive: 20.4%. In the case of `Cc1ccc(NP(C)(=O)Oc2ccccc2)c(C)c1` (centres undefined), the activity change, negative = inhibition was inactive: -7.32%. For `Cc1cccc(C)c1OP(C)(N)=O` (centres undefined), the activity change, negative = inhibition was inactive: 11.8%. For `COc1ccccc1OP(C)(=O)Nc1ccccc1` (centres undefined), the activity change, negative = inhibition was inactive: 8.41%. With `CP(=O)(Nc1ccccc1Br)Oc1ccccc1` (centres undefined) the activity change, negative = inhibition was inactive: -6.29%. For `CP(=S)(Nn1cnnc1)Oc1ccccc1` (centres undefined), the activity change, negative = inhibition was inactive: -0.375%. In the case of `CP(=O)(Nc1ccccn1)Oc1ccc(Cl)cc1` (centres undefined), the activity change, negative = inhibition was inactive: 14.6%. With `CCOP(C)(=S)SCC(=O)NC(C)C(=O)O` (centres undefined) the activity change, negative = inhibition was inactive: 6.24%. In the case of `CCOC(=O)c1ccc(NP(C)(=O)Oc2ccc(OC)cc2)cc1` (centres undefined), the activity change, negative = inhibition was inactive: 8.28%. In the case of `CN(C)CCS`, the activity change, negative = inhibition was inactive: -1.75%. In the case of `CP(=O)(NC(=O)Nc1ccccc1)Oc1ccccc1` (centres undefined), the activity change, negative = inhibition was inactive: -2.07%. For `CCc1ccc(OP(C)(=O)N2CCN(c3ccc([N+](=O)[O-])cc3)CC2)cc1` (centres undefined), the activity change, negative = inhibition was inactive: -17.5% [at 9.22 µM]. For `Cc1cc(C)cc(OP(C)(=O)Nc2ccc(SC(F)(F)F)cc2)c1` (centres undefined), the activity change, negative = inhibition was inactive: 0.317%. For `Cc1cccc(C)c1OP(C)(=O)Nc1ccc(SC(F)(F)F)cc1` (centres undefined), the activity change, negative = inhibition was inactive: -22.7%. With `CP(=O)(Nc1ccc(SC(F)(F)F)cc1)Oc1ccc(Cl)cc1` (centres undefined) the activity change, negative = inhibition was inactive: -9.5% [at 9.22 µM]. With `CP(=O)(Oc1ccccc1)OC(c1ccccc1)C(F)(F)F` (centres undefined) the activity change, negative = inhibition was inactive: 12.6%.

From PubChem BioAssay AID1688 (National Center for Advancing Translational Sciences (NCATS), 2009)
% is scaled to controls: 0 for no effect and ±100 for the full control effect.
